## Measured affinities in a library of Ab-14 heavy chain variants

All variants were tested on one target, the spike HR2 peptide PDVDLGDISGINAS (SARS-CoV-2).

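The starting antibody came from a phage panning campaign against this peptide. In library AAYL49, one, two or three CDR residues were substituted; doubles and triples were drawn at random. AlphaSeq pools MATa yeast showing the antibodies with MATalpha yeast showing the peptide. The frequency of each diploid, read from paired DNA barcodes, reflects how well the two displayed proteins bind. The ratio of observed to expected reads was calibrated, replicate by replicate, on BCL2-family standards whose Kd was known from biolayer interferometry. Each pool was mated in three replicate cultures.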

Each scFv is VH, three GGGGS repeats, VL, as in the parent Ab-14, and differs from it in the CDRs of the heavy chain only.
VH: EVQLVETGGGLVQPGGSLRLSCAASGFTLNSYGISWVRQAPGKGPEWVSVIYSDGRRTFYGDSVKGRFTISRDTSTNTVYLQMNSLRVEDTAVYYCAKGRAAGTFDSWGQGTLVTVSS
VL: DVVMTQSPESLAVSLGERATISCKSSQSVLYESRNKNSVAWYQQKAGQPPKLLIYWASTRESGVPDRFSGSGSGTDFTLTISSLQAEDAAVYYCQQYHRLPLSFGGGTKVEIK

The parent's heavy chain CDRs are GFTLNSYGIS, VIYSDGRRTFYGDSVK, GRAAGTFDS; each variant's own CDRs replace them letter for letter.
Values are log10 of the apparent Kd in nM; lower means stronger binding.
"nd" marks a missing value. The strain was present, yet no cells mated with the target were sequenced in that replicate, which points to weak or no binding.
Nonspecific signal, from three strains lacking the peptide, appeared in 15% of pairings of library AAYL49, centred on 4.06 (5% of these signals below 2.83); values are not corrected for it. For each scFv, signals with the empty controls are counted beside the result, with their mean in brackets.

| CDR-H1 | CDR-H2 | CDR-H3 | log10 Kd (nM) by replicate | signal with controls |
|---|---|---|---|---|
| GFTLNCYGIS | VIYMDGRRTVYGDSVK | GRAAGTFDS | nd / nd / nd | 1/9 (2.83) |
| GFTLNSYGIS | IIYSDGRRKFYGDHVK | GRAAGTFDS | 2.79 / 3.46 / 3.43 | 3/9 (3.92) |
| GFTLNSYGIS | SIYSDGRFTFYVDSVK | GRAAGTFDS | nd / 3.52 / 5.58 | 1/9 (3.71) |
| GQTLNSYGIS | VIYSDGRRTFYGDSVK | GRAAGNFDV | 0.95 / 1.23 / 1.25 | 1/9 (4.16) |
| GFTLNSYGIS | VIYSDGRRTIYGDSVK | GRNAGTFDL | 4.05 / 4.08 / nd | 0/9 |
| GFTLNSYSIS | VIYVAGRRTFYGDSVK | GRAAGTFDS | nd / 3.81 / 5.48 | 3/9 (3.71) |
| GFTLNSYGDS | VIPSDGRRTFYGDSFK | GRAAGTFDS | 4.91 / 3.53 / nd | 1/9 (4.12) |
| GFTLNSYGIS | VIYSDGRRTAYHDSVK | GRAAGGFDS | 3.44 / 3.24 / nd | 1/9 (3.11) |
| GFYLNDYGMS | VIYSDGRRTFYGDSVK | GRAAGTFDS | 1.99 / 1.44 / 1.77 | 4/9 (3.81) |
| GFTLNSYGIA | VIYSDPRRTFYGDSVK | LRAAGTFDS | nd / nd / nd | 1/9 (2.15) |
| GFTLNVYGIS | VIYSDGRRFFYGDSVK | GRAAGTFDS | 3.78 / nd / 5.71 | 2/9 (4.45) |
| GFTLNSYGIS | VIYSDGRRTFYGDDVK | DRDAGTFDS | 3.54 / nd / nd | 5/9 (3.81) |
| GFTLNSYGIM | YIYSDGRRTFYGDSVK | GRAAGTFGS | nd / nd / nd | 0/9 |
| GFTLHSYGIS | VIYSDGRRTFYGDEVK | GRAKGTFDS | 0.61 / 1.29 / 0.85 | 2/9 (3.81) |
| GSTLNSYGIS | VIYSDGRRTFYGDSKK | GRAAGTFDF | nd / 3.22 / nd | 1/9 (2.54) |
| GFTLNSYGIS | VIYSDGHRTFYGDSVK | GRAAGDFDD | 2.56 / 1.78 / 2.07 | 2/9 (3.09) |
| GFTLYSYGIS | VIYGDGRRTFYGDSVK | GRAAGMFDS | nd / nd / nd | 2/9 (4.44) |

Continued, with the values leading:

| log10 Kd (nM) by replicate | signal with controls | CDR-H1 | CDR-H2 | CDR-H3 |
|---|---|---|---|---|
| nd / nd / nd | 1/9 (4.47) | GFTLNSYGIK | VINSDGRRTFYGDSVK | GRAAGEFDS |
| nd / nd / 4.63 | 1/9 (2.53) | GFTLNSCGIS | VIYSAGRRTFYGDSVK | GRAAGTFDE |
| 3.82 / 5.20 / nd | 4/9 (4.64) | GFTLNSYGIS | VIYSDGRRTFYGDSVK | GFAAGQFDS |
| nd / nd / nd | 0/9 | GFTLNSYGIS | NIYSFGRRTFYGDQVK | GRAAGTFDS |
| nd / nd / nd | 0/9 | GFTLNSYLIS | VIYSDMRCTFYGDSVK | GRAAGTFDS |
| nd / nd / nd | 1/9 (4.67) | GFTLNFYGIS | VIYSDGRTTFYGDSIK | GRAAGTFDS |
| 5.61 / 4.88 / 4.38 | 6/9 (3.65) | GFTLNSTGIS | VIYSDGRRTFYGDSVK | GRAAMTFMS |
| -0.10 / 0.30 / 0.14 | 1/9 (4.08) | GFTLNQYGIS | VIYSDGRRTFYGDSVK | GRAADTFDS |
| nd / 2.54 / nd | 0/9 | GFTLNTYGIK | VIYSDGRRTFYGDSVK | GRAAGTRDS |
| 3.22 / 2.30 / 2.97 | 0/9 | YFTLNSYGIS | VIYSDGRRTFYEDSVK | GRAAGTFDS |
| 4.23 / 4.14 / nd | 2/9 (4.17) | VFTLNSYGLS | VIYSDGRRTFYGDSVK | GRCAGTFDS |
| 3.25 / nd / 3.51 | 1/9 (3.53) | GFTLNSYGAS | VIYSDGRRTFYCDSVK | GRAAGTFDL |
| nd / nd / 4.44 | 1/9 (4.10) | GFTLNSYQIS | VLYSDARRTFYGDSVK | GRAAGTFDS |
| nd / nd / nd | 0/9 | GFTLNSYGIS | VRYSDGRRTFYGWSVK | GRALGTFDS |
| nd / nd / nd | 1/9 (3.45) | GFTLNSYGIS | VPYHDGRRTFYGDPVK | GRAAGTFDS |
| 3.97 / nd / nd | 2/9 (3.86) | GFTLNSYGIR | VIYVDGRRTFYGDSVK | GRAAGTFWS |
| 5.82 / nd / nd | 4/9 (4.12) | GFTLNSYGNS | VIYSDGRRTFYGDSVL | RRAAGTFDS |
| nd / nd / nd | 1/9 (2.33) | GFTLNSYGIS | VIYSDGRRTCPGDSVK | NRAAGTFDS |

The last 2 entries again:

{"CDR-H1": "GFTLNSYGNS", "CDR-H2": "VIYSDGRRTFYGDSVL", "CDR-H3": "RRAAGTFDS", "log10 Kd (nM) by replicate": "5.82 / nd / nd", "signal with controls": "4/9 (4.12)"}
{"CDR-H1": "GFTLNSYGIS", "CDR-H2": "VIYSDGRRTCPGDSVK", "CDR-H3": "NRAAGTFDS", "log10 Kd (nM) by replicate": "nd / nd / nd", "signal with controls": "1/9 (2.33)"}

Values reported by Engelhart et al. 2022, doi:10.1038/s41597-022-01779-4 (FLAb copy).